# AlphaSeq binding of Ab-14 heavy chain variants to a spike HR2 peptide

Values reported by Engelhart et al. 2022, doi:10.1038/s41597-022-01779-4 (FLAb copy).

The target is the same throughout: PDVDLGDISGINAS, from the HR2 region of SARS-CoV-2 spike.

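Phage display of a naive human antibody library on the peptide gave the parent. Variants in AAYL49 differ from the parent at up to three CDR positions; double and triple changes were sampled at random. The assay is AlphaSeq: two haploid yeast populations carry antibody and antigen on their surface. Pairs that bind mate more often; barcode pairs of the diploids are counted by sequencing. Read counts were normalised to the haploid input and turned into Kd by a linear fit to BCL2-family pairs of known affinity, for each replicate. Mating was done three times.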

Ab-14 is the parent antibody, in scFv form: VH, then the linker GGGGSGGGGSGGGGS, then VL. The light chain is unchanged in all variants.
VH: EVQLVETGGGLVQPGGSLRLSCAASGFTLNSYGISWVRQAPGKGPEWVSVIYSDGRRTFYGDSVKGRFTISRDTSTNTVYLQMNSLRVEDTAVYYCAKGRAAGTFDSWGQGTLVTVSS
VL: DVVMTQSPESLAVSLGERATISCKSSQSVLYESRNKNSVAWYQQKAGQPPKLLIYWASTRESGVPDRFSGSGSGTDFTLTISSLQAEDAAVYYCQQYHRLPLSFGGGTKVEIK

The parent's heavy chain CDRs are GFTLNSYGIS, VIYSDGRRTFYGDSVK, GRAAGTFDS; each variant's own CDRs replace them letter for letter.
The Kd shown is the geometric mean over detected replicates; a lower Kd is a better binder.
"nd" means that the variant was in the library but no mating with the target was seen in any replicate; the authors take this as a sign of poor binding, and no number exists.
Nonspecific signal, from three strains lacking the peptide, appeared in 15% of pairings of library AAYL49, centred on 11 µM (5% of these signals below 680 nM); values are not corrected for it.
For reference, the parent read 4.4 nM as the reference entry and 13 µM (one replicate of three) as a member of this library.

With GFTLNKYGIV, VIYSDGRWTFYGDSVK, GRAAGTFDS the result was nd (0 of 3 replicates).
With GFTLNSYGIS, VIYSDIRRTFYGDSVD, GQAAGTFDS the result was 48 µM (3 of 3 replicates).
With GFTLNSYGIS, VIYSDGRRTFMGDDHK, GRAAGTFDS the result was 2.1 µM (2 of 3 replicates).
With GFTLNSYGIS, VIESPGRRTFYGDSVK, GRAAGTFCS the result was 950 nM (2 of 3 replicates).
With GFTLNSYGIS, VIYSDGRRTFYGDDVC, GRAATTFDS the result was 230 µM (1 of 3 replicates).
With GLTLNSYGIS, VIYSDGRRTGYGDSAK, GRAAGTFDS the result was 6.5 µM (2 of 3 replicates).
With GFTLNSQGIS, VIYSDGRNTFYGDSVK, GIAAGTFDS the result was 6.3 µM (3 of 3 replicates).
With GFTLNSYGIS, VIYSDGEATFYGDSVK, GRIAGTFDS the result was 580 nM (2 of 3 replicates).
With GFTLNSYGHS, VIYSDGRETFYGDMVK, GRAAGTFDS the result was 16 µM (2 of 3 replicates).
With GTTLNSYGIS, VIYSDTRRTFYGDSVK, VRAAGTFDS the result was 510 nM (3 of 3 replicates).
With GNTLNSYGIS, VIYSDGRRTNYGDSVK, GRAAMTFDS the result was 39 µM (2 of 3 replicates).
With GFTLNSYGIS, VIYSDGRRPFYGDSVK, GRQAGTFDS the result was nd (0 of 3 replicates).
With NFTLTSYGIS, VIYSDGRRTFYGDSVK, GRKAGTFDS the result was 1.8 µM (2 of 3 replicates).
With GFTLNFYGIS, VIYSSGRRGFYGDSVK, GRAAGTFDS the result was nd (0 of 3 replicates).
With GFTLNSYGIS, VIYEDGRRTFYGHSVK, GRAAGTFDS the result was nd (0 of 3 replicates).
With GFHLYSYGIS, VIYSDGRRTFYGDSVK, GRAAGTFDF the result was nd (0 of 3 replicates).
With GFTLNSYGIS, VIYSDGRRAHYGDSDK, GRAAGTFDS the result was nd (0 of 3 replicates).
With WFTLNSYGIV, VIYSDGRRTFYGDSVK, GRAAGTFDS the result was 150 µM (3 of 3 replicates).
With GFTLNSYGIS, VIYADGRRTFYGDSVK, GRAAGNFDS the result was 2.0 nM (3 of 3 replicates).
With GFTMNSLGIS, VIYSDGRRTFYGDSVK, GRCAGTFDS the result was nd (0 of 3 replicates).

Further variants, results first:

Read-out nd (0 of 3 replicates), from GCTLNSYGIS, VIYMDGRRTFYGDSVK, GRAAGPFDS.
Read-out nd (0 of 3 replicates), from GFTLNSYGIS, VIYSDGVRTFDGDSVK, GRAAGTFCS.
Read-out nd (0 of 3 replicates), from QFTLDSYGIS, VIYSDGRRTFHGDSVK, GRAAGTFDS.
Read-out nd (0 of 3 replicates), from GFALNSYMIS, VIYSDGRRTTYGDSVK, GRAAGTFDS.
Read-out nd (0 of 3 replicates), from GFTLNSYGNS, VIYSDGRRTFYGDSVR, GRAAGMFDS.
Read-out 12 µM (1 of 3 replicates), from GFTLNSCGIS, TIYSDGRRTFYGDSVK, GRAAGTFDS.
Read-out nd (0 of 3 replicates), from GFTLNSYEIS, VIYSDGRRTAYGDNVK, GRAAGTFDS.
Read-out 1.0 µM (3 of 3 replicates), from GFTLNYYGIS, VIYSDGRRTFYGMSVK, GRAAGTFDF.
Read-out 17 µM (1 of 3 replicates), from GFTLNSYGIS, VIYSDGPRTFPGDSVK, GRAAGTFDS.
Read-out nd (0 of 3 replicates), from GFTLNSYGIS, VIGSDGRRTFYGDSVK, GRAAGPFDS.
Read-out 240 µM (1 of 3 replicates), from LFLLNSYGWS, VIYSDGRRTFYGDSVK, GRAAGTFDS.
Read-out nd (0 of 3 replicates), from GFTLNSYGIS, VVYSDGRRTFLGDWVK, GRAAGTFDS.
Read-out nd (0 of 3 replicates), from CFTLNSYGIS, VIASDGRRTFYGDPVK, GRAAGTFDS.
Read-out nd (0 of 3 replicates), from GFTLNSYGVM, VIYSDGRRTFYGDSMK, GRAAGTFDS.
Read-out nd (0 of 3 replicates), from GFTLNSYSIS, VSYSDGRRKFYGDSVK, GRAAGTFDS.
Read-out 78 µM (3 of 3 replicates), from GFTLNSYQIS, VIYSDIRRTFYGDSVK, GRAAGAFDS.
Read-out 54 µM (2 of 3 replicates), from VFTLNSYEIS, VIYSDGRRTFYGRSVK, GRAAGTFDS.
Read-out 53 µM (2 of 3 replicates), from GFTLNSYGIS, VIYSHGRWTMYGDSVK, GRAAGTFDS.
Read-out nd (0 of 3 replicates), from GFTLNSYGIS, VIYSWGRRTFYGDSVK, GFAAGTFDP.
Read-out nd (0 of 3 replicates), from GFTLNSYGIS, VIYSDGRNTFYGDSVK, GRAYGTFDN.

For reference, 3 entries of the list once more:

The variant GFTLNSYGIS, VIYSHGRWTMYGDSVK, GRAAGTFDS gave 53 µM (2 of 3 replicates).
The variant GFTLNSYGIS, VIGSDGRRTFYGDSVK, GRAAGPFDS gave nd (0 of 3 replicates).
The variant GFTLNSYGIS, VIYSDGRRTFYGDDVC, GRAATTFDS gave 230 µM (1 of 3 replicates).